Patent US20240141017A1, “FLUORESCENT BIOSENSORS AND METHODS OF USE FOR DETECTING CELL SIGNALING EVENTS” (THE REGENTS OF THE UNIVERSITY OF MICHIGAN, priority 2021, published 2024)

The chains behind the UniProt entries cited, without tags or fusion partners. A line that says so, or that is headed by a name, gives the form on record, which may keep a tag or linker.
UniProt P41145, with tags, fused parts or gaps: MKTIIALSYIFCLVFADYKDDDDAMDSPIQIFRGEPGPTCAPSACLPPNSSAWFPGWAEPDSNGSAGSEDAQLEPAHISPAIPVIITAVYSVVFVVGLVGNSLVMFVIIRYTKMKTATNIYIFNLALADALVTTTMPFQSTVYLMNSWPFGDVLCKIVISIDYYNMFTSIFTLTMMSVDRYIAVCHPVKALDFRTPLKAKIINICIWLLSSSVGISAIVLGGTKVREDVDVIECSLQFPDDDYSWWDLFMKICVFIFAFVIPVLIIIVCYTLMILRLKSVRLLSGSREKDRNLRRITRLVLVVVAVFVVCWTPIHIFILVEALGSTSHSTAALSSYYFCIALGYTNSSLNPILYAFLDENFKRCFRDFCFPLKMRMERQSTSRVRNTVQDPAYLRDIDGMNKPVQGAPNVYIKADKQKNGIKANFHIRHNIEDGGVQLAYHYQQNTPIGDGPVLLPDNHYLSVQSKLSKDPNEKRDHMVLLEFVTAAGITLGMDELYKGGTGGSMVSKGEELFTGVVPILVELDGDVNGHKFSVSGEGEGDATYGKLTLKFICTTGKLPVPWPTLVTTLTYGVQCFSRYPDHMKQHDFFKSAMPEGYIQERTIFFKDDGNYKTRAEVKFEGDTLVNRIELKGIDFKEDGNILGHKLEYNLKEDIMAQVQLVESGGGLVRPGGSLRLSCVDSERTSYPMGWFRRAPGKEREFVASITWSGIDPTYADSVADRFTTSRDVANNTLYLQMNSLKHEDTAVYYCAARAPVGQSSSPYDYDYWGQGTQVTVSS

Target: T1, K-SPOTIT1.0 (Homo sapiens, UniProt P41145)
T1 construct: signal peptide (MKTIIALSYIFCLVFA) (N); expressed in transfected cells; host or cells: HEK293T (lentiviral infection)
Type: cell-based

Compound: COC(=O)[C@@H]1C[C@H](OC(C)=O)C(=O)[C@H]2[C@@]1(C)CC[C@H]1C(=O)O[C@H](c3ccoc3)C[C@]21C [Sal A, Salvinorin A]
- biosensor expression level change in the presence and absence of Sal A (immunostaining): < 1 fold
- fluorescence increase after short pulse of agonist: 4.2 fold
- fluorescence increase compared to the condition without Sal A: 10.9 fold
- fluorescence increase with longer agonist incubation: 12 fold
